Key:
[1] = molecular target: Butyrophilin subfamily 3 member A1 (Homo sapiens) (UniProt O00481); experiment: Potency index, ratio of HMBPP EC50 to compound EC50 for BTN3A1 in human Vgamma9Vdelta2 T cells
[2] = Selectivity index, ratio of IC50 for human Vgamma9Vdelta2 T cells to EC50 for BTN3A1 in human Vgamma9Vdelta2 T cells; type: functional
[3] = molecular target: Butyrophilin subfamily 3 member A1 (Homo sapiens) (UniProt O00481); details: 240 uM
[4] = molecular target: Butyrophilin subfamily 3 member A1 (Homo sapiens) (UniProt O00481); details: 480 uM
[5] = molecular target: Butyrophilin subfamily 3 member A1 (Homo sapiens) (UniProt O00481); details: 688 uM
[6] = molecular target: Butyrophilin subfamily 3 member A1 (Homo sapiens) (UniProt O00481); details: 240 uM; remark: listed apart in the source
[7] = molecular target: Butyrophilin subfamily 3 member A1 (Homo sapiens) (UniProt O00481); details: 480 uM; remark: listed apart in the source
[8] = molecular target: Butyrophilin subfamily 3 member A1 (Homo sapiens) (UniProt O00481); details: 688 uM; remark: listed apart in the source
[9] = molecular target: Butyrophilin subfamily 3 member A1 (Homo sapiens) (UniProt O00481)
[10] = molecular target: Butyrophilin subfamily 3 member A1 (Homo sapiens) (UniProt O00481); remark: listed apart in the source

By UniProt entry, the sequences of proteins in these tests, tags left out. Where a name states a change or a piece, a line headed by the entry shows the natural chain unless it says otherwise.
UniProt O00481: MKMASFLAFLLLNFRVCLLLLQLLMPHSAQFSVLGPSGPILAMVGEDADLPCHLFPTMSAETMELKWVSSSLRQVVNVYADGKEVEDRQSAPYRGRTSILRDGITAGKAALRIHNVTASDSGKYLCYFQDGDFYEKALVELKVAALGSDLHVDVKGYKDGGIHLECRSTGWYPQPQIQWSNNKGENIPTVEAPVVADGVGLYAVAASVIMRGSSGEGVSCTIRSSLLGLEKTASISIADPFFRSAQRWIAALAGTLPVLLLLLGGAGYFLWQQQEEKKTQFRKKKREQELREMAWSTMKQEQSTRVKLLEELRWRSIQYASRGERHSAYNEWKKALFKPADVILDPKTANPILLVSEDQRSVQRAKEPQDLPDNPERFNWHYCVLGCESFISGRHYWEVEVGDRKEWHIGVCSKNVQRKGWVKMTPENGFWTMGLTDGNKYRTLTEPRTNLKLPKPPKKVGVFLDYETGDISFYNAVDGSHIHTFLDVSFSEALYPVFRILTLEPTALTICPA

**Q.** For COP(=O)(CC/C=C(\C)CO)CP(=O)(OC)OC (centres undefined), which Ratio EC50 [1] is on record?
**A.** Its Ratio EC50 is under 5.1e-06.

**Q.** Which results are given for C/C(=C\CCP(=O)([O-])CP(=O)([O-])[O-])CO.[Na+].[Na+].[Na+]?
**A.** Ratio EC50 [1]: 2e-05; Ratio IC50/EC50 [2]: >3.8; deltaH [3]: -17.2 kcal/mol; deltaH [4]: -18.6 kcal/mol; deltaH [5]: -17.7 kcal/mol; deltaG [6]: -5.23 kcal/mol; deltaG [7]: -5.43 kcal/mol; deltaG [8]: -5.57 kcal/mol

**Q.** Which Ratio EC50 [1] does the source give for C/C(=C\CCP(=O)(CP(=O)(OCOC(=O)C(C)(C)C)OCOC(=O)C(C)(C)C)OCOC(=O)C(C)(C)C)CO (centres undefined) here?
**A.** Its Ratio EC50 is 0.012.

**Q.** For CC(C)=CCCP(=O)(CP(=O)(OCOC(=O)C(C)(C)C)OCOC(=O)C(C)(C)C)OCOC(=O)C(C)(C)C (centres undefined), which Ratio EC50 [1] is on record?
**A.** Its Ratio EC50 is under 5.1e-06.

**Q.** Which Ratio EC50 [1] does the source give for CC(C)=CCCP(=O)(O)CP(=O)(O)O here?
**A.** Its Ratio EC50 is under 5.1e-06.

**Q.** And the deltaH [9]?
**A.** Its deltaH is -9.32 kcal/mol.

**Q.** And the deltaH [10]?
**A.** Its deltaH is -1.65 kcal/mol.

Reference: ChEMBL document CHEMBL4007426, “Phosphinophosphonates and Their Tris-pivaloyloxymethyl Prodrugs Reveal a Negatively Cooperative Butyrophilin Activation Mechanism” (J Med Chem, 2017)
